Read-outs that look alike come from different tables or passages of the source.
Key:
Recombinant human MMP-1 = Recombinant human MMP-1 (Homo sapiens, UniProt P03956); details: read-out: MMP-1 IC50, fluorogenic MCA-peptide substrate, pH 7.5, room temperature
Recombinant human MMP-2 = Recombinant human MMP-2 (Homo sapiens, UniProt P08253); details: read-out: MMP-2 IC50, fluorogenic MCA-peptide substrate, pH 7.5, room temperature
Recombinant human MMP-13 = Recombinant human MMP-13 (Homo sapiens, UniProt P45452); details: read-out: MMP-13 IC50, fluorogenic MCA-peptide substrate, pH 7.5, room temperature

The chains behind the UniProt entries cited, without tags or fusion partners. Residues count along the entry.
UniProt P03956, 100-469 limits assumed: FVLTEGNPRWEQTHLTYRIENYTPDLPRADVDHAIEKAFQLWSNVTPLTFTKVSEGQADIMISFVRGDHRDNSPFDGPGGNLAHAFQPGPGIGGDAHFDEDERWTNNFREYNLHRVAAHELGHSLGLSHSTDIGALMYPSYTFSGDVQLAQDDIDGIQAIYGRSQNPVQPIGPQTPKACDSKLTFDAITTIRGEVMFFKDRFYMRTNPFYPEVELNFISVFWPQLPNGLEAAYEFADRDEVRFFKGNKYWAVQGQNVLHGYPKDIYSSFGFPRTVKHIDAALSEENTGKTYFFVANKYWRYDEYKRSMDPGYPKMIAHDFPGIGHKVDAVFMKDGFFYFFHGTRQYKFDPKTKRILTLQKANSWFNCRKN
UniProt P08253, 110-660 limits assumed: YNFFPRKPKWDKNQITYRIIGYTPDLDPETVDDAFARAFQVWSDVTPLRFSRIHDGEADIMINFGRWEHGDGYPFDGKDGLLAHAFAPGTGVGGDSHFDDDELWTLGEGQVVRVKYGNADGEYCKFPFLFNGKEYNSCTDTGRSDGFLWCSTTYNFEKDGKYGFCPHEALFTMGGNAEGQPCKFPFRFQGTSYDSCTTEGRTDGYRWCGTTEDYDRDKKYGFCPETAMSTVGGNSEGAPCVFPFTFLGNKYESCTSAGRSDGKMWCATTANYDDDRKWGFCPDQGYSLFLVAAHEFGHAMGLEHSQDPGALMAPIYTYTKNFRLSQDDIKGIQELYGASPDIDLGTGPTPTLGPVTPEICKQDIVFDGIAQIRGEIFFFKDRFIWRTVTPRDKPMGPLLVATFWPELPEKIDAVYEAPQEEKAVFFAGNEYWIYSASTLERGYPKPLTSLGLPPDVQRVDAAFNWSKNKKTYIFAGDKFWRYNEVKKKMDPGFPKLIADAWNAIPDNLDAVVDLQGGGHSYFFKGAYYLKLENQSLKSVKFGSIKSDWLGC

| Compound | IC50 (Recombinant human MMP-1; tested form: HCl) | IC50 (Recombinant human MMP-2; tested form: HCl) | IC50 (Recombinant human MMP-13; tested form: HCl) | further results |
| --- | --- | --- | --- | --- |
| CCc1ccc(C(=O)C2CCN(c3ccc(S(=O)(=O)C4(C(=O)NO)CCN(CCOC)CC4)cc3)CC2)s1 | > 10 µM | 0.0408 µM | 0.0002 µM | – |
| COCCN1CCC(C(=O)NO)(S(=O)(=O)c2ccc(N3CCC(C(=O)c4ccc(N(C)C)c(Cl)c4)CC3)cc2)CC1 | > 10 µM | 0.36 µM | 0.0015 µM | – |
| CCN1CCC(C(=O)NO)(S(=O)(=O)c2ccc(N3CCC(C(=O)c4ccc(Cl)cc4)CC3)cc2)CC1 | > 10 µM | 0.0987 µM | 0.0004 µM | – |
| CS(=O)(=O)N1CCC(C(=O)NO)(S(=O)(=O)c2ccc(N3CCC(C(=O)c4ccc(Cl)cc4)CC3)cc2)CC1 | – | – | – | IC50 (Recombinant human MMP-1): > 10 µM; IC50 (Recombinant human MMP-2): 0.103 µM; IC50 (Recombinant human MMP-13): 0.0013 µM |
| O=C(c1ccc(Br)s1)C1CCN(c2ccc(S(=O)(=O)C3(C(=O)NO)CCN(C4CC4)CC3)cc2)CC1 | > 10 µM | 0.0085 µM | 0.0002 µM | – |
| COCCN1CCC(C(=O)NO)(S(=O)(=O)c2ccc(N3CCC(C(=O)c4ccc(CC(C)C)s4)CC3)cc2)CC1 | – | – | – | IC50 (Recombinant human MMP-2; tested form: 2 HCl): 0.0875 µM; IC50 (Recombinant human MMP-13; tested form: 2 HCl): 0.001 µM |
| CN(C)c1ccc(C(=O)C2CCN(c3ccc(S(=O)(=O)C4(C(=O)NO)CCN(S(C)(=O)=O)CC4)cc3)CC2)cc1 | – | – | – | IC50 (Recombinant human MMP-1): > 10 µM; IC50 (Recombinant human MMP-2): 3.23 µM; IC50 (Recombinant human MMP-13): 0.0034 µM |
| CCCc1ccc(C(=O)C2CCN(c3ccc(S(=O)(=O)C4(C(=O)NO)CCN(CCOC)CC4)cc3)CC2)s1 | > 10 µM | 0.0729 µM | 0.0004 µM | – |
| CN(C)CCCN1CCN(C(=O)C2CCN(c3ccc(S(=O)(=O)C4(C(=O)NO)CCOCC4)cc3)CC2)CC1 | – | – | – | IC50 (Recombinant human MMP-1; tested form: TFA): > 10 µM; IC50 (Recombinant human MMP-2; tested form: TFA): 7 µM; IC50 (Recombinant human MMP-13; tested form: TFA): 0.07 µM |
| C#CCN1CCC(C(=O)NO)(S(=O)(=O)c2ccc(N3CCC(C(=O)c4ccc(Cl)c(Cl)c4)CC3)cc2)CC1 | > 10 µM | 0.0379 µM | 0.0007 µM | – |
| CCN1CCC(C(=O)NO)(S(=O)(=O)c2ccc(N3CCC(C(=O)c4ccc5ccccc5c4)CC3)cc2)CC1 | > 10 µM | 0.405 µM | 0.0019 µM | – |
| CCN1CCC(C(=O)NO)(S(=O)(=O)c2ccc(N3CCC(C(=O)c4ccc(C)c(C)c4)CC3)cc2)CC1 | > 10 µM | 1.06 µM | 0.0026 µM | – |
| COCCN1CCC(C(=O)NO)(S(=O)(=O)c2ccc(N3CCC(C(=O)c4ccc(CC5CC5)cc4)CC3)cc2)CC1 | > 10 µM | 0.0564 µM | 0.0004 µM | – |

Reference: patent US20040209914A1, “Aromatic sulfone hydroxamic acids and their use as protease inhibitors” (priority 2000, published 2004)
